{"source": "patent US9682908B2", "about": "“Method for producing butanol using extractive fermentation” (BUTAMAX ADVANCED BIOFUELS LLC, priority 2013, dated 2017)", "key": {"[1]": {"experiment": "Isobutanol partitioning between solvent and water (Kd, butanol partition coefficient)", "conditions": "aqueous 2.0 wt % isobutanol"}, "[2]": {"experiment": "Equilibrium moisture content of solvent", "type": "physicochemical", "conditions": "Table 1"}}}
{"smiles": "CCCCOP(=O)(OCCCC)OCCCC", "values": [{"measurement": "isobutanol in organic layer, calculated by mass balance", "setting": "[1]; half its mass of solvent", "result": 3.22, "unit": "wt %"}, {"measurement": "mass partitioning coefficient", "setting": "[1]; half its mass of solvent", "result": 9.8}, {"measurement": "isobutanol in aqueous layer", "setting": "[1]; half its mass of solvent (5 g/2.5 g or 1 g/0.5 g), HPLC", "result": 0.33, "unit": "wt %"}, {"measurement": "Moisture Content (wt %)", "setting": "[2]", "result": 6.7, "unit": "wt %"}]}
